According to EP4671280A1 (Nanjing Leads Biolabs Co., Ltd., dated 2025):

T1: human Nectin-1 protein (ACRO Biosystems, Cat. No. PV1-H5223) (human, UniProt Q15223 31-334)
T1 sequence (looked up): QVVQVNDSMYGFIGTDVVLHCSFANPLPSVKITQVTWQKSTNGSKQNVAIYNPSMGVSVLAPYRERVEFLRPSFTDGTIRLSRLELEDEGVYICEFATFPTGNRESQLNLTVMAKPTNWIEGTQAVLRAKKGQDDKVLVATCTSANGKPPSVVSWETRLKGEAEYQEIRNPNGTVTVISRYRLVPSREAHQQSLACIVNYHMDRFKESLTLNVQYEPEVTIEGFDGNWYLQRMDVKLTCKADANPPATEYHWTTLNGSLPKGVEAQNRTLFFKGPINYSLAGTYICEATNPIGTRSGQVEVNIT


Target: T1, human Nectin-1 protein (ACRO …)
Assay: ELISA, Nectin family protein immobilised on plate

Row | Binder | binding result
1 | Antibody 6-B9B6 (murine chimeric anti-Nectin-4 antibody) (antibody, human IgG1, kappa, V domains shown, Mouse variable regions on human IgG1 / human kappa constant regions) VH: EVHLVESGGGLVQPGGSLKLSCAASGFTFSSYGMSWVRQTPDKRLELVATINNIGGSTFPPDSVKGRFTVSRDNAKNTLYLQMSSLKSEDTAMYYCARAYDYVPFAYWGQGTLVTVSA VL: DIQMTQSSSYLSVSLGGRVTITCKASDHINNWLAWYQQKPGNAPRLLISGATSLETGVPSRFSGSGSGKDYALSIASLQTEDVATYYCQQYWSTPFTFGSGTKLEIKR | no binding
2 | Antibody 23-H4F3 (murine chimeric anti-Nectin-4 antibody) (antibody, human IgG1, kappa, V domains shown, Mouse variable regions on human IgG1 / human kappa constant regions, expressed in ExpiCHO-S cells; also called chimeric antibody 23-H4F3) VH: QVQLQQSGPELVKPGASVRISCKASGYTFTSYYIHWVKQRPGQGLEWIGWIYPGNVNTKYNEKFKGKATLTADKSSSTAYMQLISLTSEDSAVYFCARGVYYFDFWGQGTTLTVSS VL: SIVMTQTPKFLLVSAGDRVTLTCKASQSVSNDVAWFQQKPGQSPKLLIYYALNRYTGVPDRFTGSGYGTDFTFTISTVQAEDLAVYFCQQDYSSPYTFGGGTKLEIKR | no binding
